“Also recorded” adds a separate entry of the source. Like-named read-outs stand apart in the source and are kept apart here.
How the values were obtained:
CN = assay type: binding
GST-CNA1 and CNB1 = assay type: binding, yeast; conditions: 350 ng S-A238L157–239, GST-CNA1/CNB1, excess peptide

Sequence	disruption of GST-fusion/CN interaction by competing peptide (CN)	disruption of A238L-CN binding by competing peptide (GST-CNA1 and CNB1; listed as peptide that encodes the LxVP docking motif from NFATc1)	disruption of A238L-CN binding by competing peptide (GST-CNA1 and CNB1; listed as peptides encoding the LxVP site from NFATc1)	disruption of A238L-CN binding by competing peptide (GST-CNA1 and CNB1)
DQYLAVPQHPYQWAK [LxVPc1]	disrupted by the addition of a peptide encoding the LxVP motif from NFATc1; also recorded: this interaction is disrupted by incubation with excess peptide LxVPc1	disrupted A238L-CN binding	interferes with A238L-CNA binding	–
GPHPVIVITGPHEE	–	–	–	interferes with A238L-CNA binding

Source: paper PMC3582496 (PLoS Biology, 2013)
